Measured values from patent publication US20250320140A1, “USE OF MEDIUM CHAIN PERACIDS FOR BIOFILM INHIBITION IN INDUSTRIAL RECIRCULATING WATER SYSTEMS” (ECOLAB USA INC., priority 2017, published 2025).

Test: Solubility of sulfonated peracids at pH 4
Format: physicochemical
Conditions: pH of 4

In the case of persulfonated oleic acid, the solubility is reported as “greater than 50%”.
